# In article PMC4838890, “Dynamic and flexible H3K9me3 bridging via HP1β dimerization establishes a plastic state of condensed chromatin” (Nature Communications, 2016):
# Amino acid sequences for entries named in this document (tags omitted).
# UniProt P83916, whole entry: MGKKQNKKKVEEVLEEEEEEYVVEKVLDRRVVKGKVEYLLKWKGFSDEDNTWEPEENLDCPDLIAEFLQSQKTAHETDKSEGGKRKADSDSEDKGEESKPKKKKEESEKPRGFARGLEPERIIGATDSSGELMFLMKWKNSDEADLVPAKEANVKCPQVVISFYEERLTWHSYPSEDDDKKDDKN
# How the values were obtained:
# [1] = molecular target: free H3K9me3 tail peptide; test: ITC; 1.8 mM hHP1β injected into 60 μM H3 peptides, nucleosomes or oligonucleosomal arrays; 25°C; 10 mM triethanolamine pH 7.5, 150 mM NaCl, 0.1 mM EDTA; apparent; one set of identical sites
# [2] = molecular target: biotinylated H3K9me3 peptide (histone H3 aa 1-20) (UniProt P84233); test: SPR; biotinylated ligands on streptavidin (SA) chips, hHP1β proteins injected; 298 K; 10 mM triethanolamine pH 7.5, 150 mM NaCl, 0.1 mM EDTA, 1 mM DTT, 0.005% Tween-20; steady-state analysis; apparent
Kd [1],Kd [2],Substance
3.3 µM,6.3 µM,hHP1β chromo domain (CD) (domain or fragment)
3.3 µM,–,human HP1β wild type (hHP1β WT) (from UniProt P83916 1-185) (natural protein)
